{"source": "paper PMC7318554", "about": "(Journal of medicinal chemistry, 2020)", "biological_target": "EGFR (Homo sapiens, UniProt P00533, DEL746-750)", "test": "Global label-free quantitative proteomics in HCC-827 cells", "format": "cell-based", "settings": "100 nM for 16 h"}
{"smiles": "COc1cc2ncnc(Nc3ccc(F)c(Cl)c3)c2cc1OCCCN1CCN(C(=O)CCCCCCCCCC(=O)N[C@H](C(=O)N2C[C@H](O)C[C@H]2C(=O)NCc2ccc(-c3scnc3C)cc2)C(C)(C)C)CC1", "note": "[Compound 6, (2S,4R)-1-((S)-2-(11-(4-(3-((4-((3-Chloro-4-fluorophenyl)amino)-7-methoxyquinazolin-6-yl)oxy)propyl)piperazin-1-yl)-11-oxounde-canamido)-3,3-dimethylbutanoyl)-4-hydroxy-N-(4-(4-methylthiazol-5-yl)benzyl)pyrrolidine-2-carboxamide]", "values": [{"measurement": "log 2 ratio of LFQ intensity value for EGFR, treatment vs DMSO control", "setting": "HCC-827 cells starved 8 h", "value": "about –2"}, {"measurement": "selectivity across the proteome", "setting": "HCC-827 cells, 4794 / 4446 proteins identified", "value": "highly selective for EGFR"}]}
